Values quoted from earlier work, collected in patent US20070248702A1, “Use of CB2 receptors agonists for the treatment of Huntington's disease” (priority 2004, published 2007).

Sequences of proteins named here, by UniProt entry; tags and fusion partners are left off.
UniProt P34972, whole entry: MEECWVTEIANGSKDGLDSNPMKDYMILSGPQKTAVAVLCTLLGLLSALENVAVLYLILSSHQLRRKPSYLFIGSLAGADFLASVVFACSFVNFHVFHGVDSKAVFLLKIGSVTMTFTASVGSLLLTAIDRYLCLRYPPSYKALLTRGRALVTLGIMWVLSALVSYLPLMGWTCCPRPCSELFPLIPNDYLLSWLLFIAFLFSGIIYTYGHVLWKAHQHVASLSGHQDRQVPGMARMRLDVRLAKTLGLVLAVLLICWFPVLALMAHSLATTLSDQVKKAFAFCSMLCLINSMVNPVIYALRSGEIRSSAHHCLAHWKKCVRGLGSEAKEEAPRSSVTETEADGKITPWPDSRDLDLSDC

Target: human CB2 receptors (Homo sapiens, UniProt P34972)
Details: read-out: IC50 human CB2 receptors; as disclosed in WO 03/064359; cited from earlier work

CCCCCCC(C)(C)c1cc(OC)c(C2C=C(CO)C3CC2C3(C)C)c(OC)c1 (single isomer, unassigned; (+)) [HU-308, (+){4-[4-(1,1-dimethylheptyl)-2,6-dimethoxyphenyl]-6,6-dimethyl-bicyclo[3.1.1]hept-2-en-2-yl}-methanol]
IC50: 13.3 nM
